Test results published in publication PMC4839537 (Biochemical pharmacology, 2016).

The chains behind the UniProt entries cited, without tags or fusion partners.
UniProt P30542, whole entry: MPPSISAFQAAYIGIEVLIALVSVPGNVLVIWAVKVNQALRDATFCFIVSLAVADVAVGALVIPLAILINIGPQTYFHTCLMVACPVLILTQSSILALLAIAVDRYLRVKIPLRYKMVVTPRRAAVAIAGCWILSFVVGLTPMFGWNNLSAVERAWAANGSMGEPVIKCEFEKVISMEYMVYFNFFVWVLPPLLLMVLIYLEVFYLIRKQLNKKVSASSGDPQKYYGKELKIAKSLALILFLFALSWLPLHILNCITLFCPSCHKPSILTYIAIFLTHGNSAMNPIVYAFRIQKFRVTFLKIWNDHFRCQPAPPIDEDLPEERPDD

Target: recombinant human A1AR (Gαi) (Homo sapiens, UniProt P30542)
Assay type: cell-based

`CCNC(=O)[C@H]1O[C@@H](n2cnc3c(N)ncnc32)[C@H](O)[C@@H]1O` [NECA, adenosine-5′-N-ethyluronamide] was tested, and the “Effect of NECA on cAMP accumulation” value was “stimulates cAMP accumulation”.
